EC50 data for one compound are collected here from ChEMBL document CHEMBL1125381, “Synthesis and alpha-adrenergic activities of 2- and 4-substituted imidazoline and imidazole analogues” (J Med Chem, 1992).

Sequences of proteins named here, by UniProt entry; tags and fusion partners are left off. A change or cut given only in a name is not applied to a line headed by its entry.
UniProt P15823: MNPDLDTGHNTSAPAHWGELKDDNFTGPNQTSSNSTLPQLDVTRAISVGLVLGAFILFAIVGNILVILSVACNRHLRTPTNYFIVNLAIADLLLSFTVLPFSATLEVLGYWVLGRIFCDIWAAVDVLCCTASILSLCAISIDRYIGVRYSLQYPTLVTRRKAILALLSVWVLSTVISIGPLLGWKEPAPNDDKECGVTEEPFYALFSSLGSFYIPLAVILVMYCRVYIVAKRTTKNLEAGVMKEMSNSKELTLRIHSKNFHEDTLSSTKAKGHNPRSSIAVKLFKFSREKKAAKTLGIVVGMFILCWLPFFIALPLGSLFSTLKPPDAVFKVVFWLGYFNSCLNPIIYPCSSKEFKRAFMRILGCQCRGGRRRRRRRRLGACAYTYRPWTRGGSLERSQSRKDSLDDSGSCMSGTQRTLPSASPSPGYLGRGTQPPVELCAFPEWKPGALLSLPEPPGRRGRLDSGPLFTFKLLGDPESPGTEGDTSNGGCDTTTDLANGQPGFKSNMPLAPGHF
UniProt P23944: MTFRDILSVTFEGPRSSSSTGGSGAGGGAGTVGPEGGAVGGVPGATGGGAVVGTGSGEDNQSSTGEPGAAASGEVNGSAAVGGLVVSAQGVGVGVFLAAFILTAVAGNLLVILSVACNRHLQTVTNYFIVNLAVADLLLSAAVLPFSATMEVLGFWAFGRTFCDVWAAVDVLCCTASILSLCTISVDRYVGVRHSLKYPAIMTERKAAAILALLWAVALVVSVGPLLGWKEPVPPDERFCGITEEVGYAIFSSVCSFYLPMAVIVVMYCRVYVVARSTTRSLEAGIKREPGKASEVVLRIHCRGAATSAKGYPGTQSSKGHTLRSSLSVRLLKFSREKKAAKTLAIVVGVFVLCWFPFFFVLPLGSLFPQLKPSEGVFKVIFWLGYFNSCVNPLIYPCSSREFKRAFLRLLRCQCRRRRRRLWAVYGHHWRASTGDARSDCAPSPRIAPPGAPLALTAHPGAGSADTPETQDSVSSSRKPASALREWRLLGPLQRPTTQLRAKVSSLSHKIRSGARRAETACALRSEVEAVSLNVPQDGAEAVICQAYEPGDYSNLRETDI
UniProt P43140: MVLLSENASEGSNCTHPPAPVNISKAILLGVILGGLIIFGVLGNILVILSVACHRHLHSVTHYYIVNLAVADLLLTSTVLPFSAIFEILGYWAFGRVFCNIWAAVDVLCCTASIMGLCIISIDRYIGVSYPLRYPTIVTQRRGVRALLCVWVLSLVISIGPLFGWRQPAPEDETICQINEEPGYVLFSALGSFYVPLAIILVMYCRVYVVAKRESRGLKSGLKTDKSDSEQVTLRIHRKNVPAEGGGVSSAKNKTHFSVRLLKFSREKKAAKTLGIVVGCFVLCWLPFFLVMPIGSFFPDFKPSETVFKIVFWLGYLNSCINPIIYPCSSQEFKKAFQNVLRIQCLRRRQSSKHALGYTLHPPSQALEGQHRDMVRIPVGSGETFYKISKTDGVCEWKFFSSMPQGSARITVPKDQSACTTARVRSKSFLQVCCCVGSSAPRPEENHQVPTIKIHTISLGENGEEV

The target in the assay is Adrenergic receptor alpha-1 (Rattus norvegicus, UniProt P15823+P23944+P43140). In words: Compound was evaluated for Adrenergic activity against Alpha-1 adrenergic receptor from rat aorta.

In the case of `Cl.c1ccc2c(CC3=NCCN3)cccc2c1` [NAPHAZOLINE HYDROCHLORIDE], the 50% effective concentration (EC50) was 12 nM.

As usually defined, the EC50 is the concentration that produces a half-maximal response.
